Experimental data reported in ChEMBL document CHEMBL4145520, “Small-molecule Mcl-1 inhibitors: Emerging anti-tumor agents” (Eur J Med Chem, 2018).

Species: Homo sapiens
Assay: Selectivity ratio of IC50 for biotin labelled Bid-BH3 binding to GST-tagged BCL-XL (unknown origin) to IC50 for biotin labelled Bid-BH3 binding to GST-tagged MCL1 (unknown origin)

## O=C(O)CSc1ccc(C(=O)c2[nH]c(Cl)c(Cl)c2-n2c(C(=O)c3ccc(SCC(=O)O)cc3O)cc(Cl)c2Cl)c(O)c1
  Ratio IC50: 16.4
